# Source: ChEMBL document CHEMBL1772984, “Inhibitor selectivity of a new class of oseltamivir analogs against viral neuraminidase over human neuraminidase enzymes” (Bioorg Med Chem, 2011)
# Target: T1, Sialidase-4 (Homo sapiens, UniProt Q8WWR8)
# T1 sequence (Q8WWR8 whole entry): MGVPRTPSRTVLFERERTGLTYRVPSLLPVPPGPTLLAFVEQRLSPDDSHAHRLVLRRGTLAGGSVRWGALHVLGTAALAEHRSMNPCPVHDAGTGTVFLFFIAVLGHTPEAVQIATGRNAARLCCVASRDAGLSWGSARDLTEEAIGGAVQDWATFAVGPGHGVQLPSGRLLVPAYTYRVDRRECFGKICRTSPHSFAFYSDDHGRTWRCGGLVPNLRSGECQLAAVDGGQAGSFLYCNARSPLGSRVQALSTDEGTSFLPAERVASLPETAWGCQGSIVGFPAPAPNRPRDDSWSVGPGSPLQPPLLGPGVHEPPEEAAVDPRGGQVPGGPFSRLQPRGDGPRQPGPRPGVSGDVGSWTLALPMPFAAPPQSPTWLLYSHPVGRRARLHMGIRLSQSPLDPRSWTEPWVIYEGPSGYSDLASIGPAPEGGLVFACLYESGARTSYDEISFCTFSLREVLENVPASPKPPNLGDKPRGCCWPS
# Experiment: Inhibition of human NEU4 using 4MU-NA as substrate after 1 hr by fluorescence assay
# How it was run: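 Recombinant human NEU4 was used as a GST fusion, expressed in E. coli BL21(DE3) pLysS and glutathione-agarose purified. Enzyme (0.1 mg/mL before mixing) was preincubated 30 min at 37 °C with inhibitor (eight serial-dilution concentrations, five replicates). 4MU-NA was added from a 1 mM stock in 0.1 M sodium acetate pH 4.5 for 1 h.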
structure (smiles),measurement,value
CC(=O)N[C@H]1[C@H]([C@H](O)[C@H](O)CO)OC(C(=O)O)=C[C@@H]1O [NEU5AC2EN],IC50,22 µM
